Laboratory results published in US12576094B2, “Combination cannabinoid-phenylethanoid formulation for treatment of inflammation and methods related thereto” (Canole LLC, priority 2019, dated 2026).

Test system: C-28/I2 chondrocytes
Experiment: toxicity screen to establish maximum tolerable concentrations in chondrocytes
Conditions: 24 hours post-treatment, serum free
Excerpt: A clonal derivative of ATCC-certified normal chondrocytes was used for a study to determine cytokine expression. The parent line was originally derived from costal cartilage of an adolescent person. The cell line used is C-28/I2 accession number CVCL_0187. The cells were immortalized via retroviral vector-mediated SV40 Large T antigen expression. Cells were confirmed negative for mycoplasma contamination and genotyped by STR analysis to verify cell identity. This cell line is widely used as a model for studying normal and pathological cartilage repair mechanisms and inflammation.
The cells were cultured at 37° C. with 5% CO2, DMEM/F12 media supplemented with 10% heat-inactivated fetal bovine serum. Antimicrobials were not added to the media. Cells were maintained between 40 and 80% confluency to avoid terminal differentiation. Cells used for the experiments had been passaged no more than ten times prior to each experiment.
A series of pilot studies were performed to design the final full-scale experiment. First, a toxicity screen for each test compound was performed to establish maximum tolerable concentrations in this model system. Second, assays were run to establish the optimal means of inducing a pro-inflammatory state in the cell culture system. […]

## nicotinamide ribose
  maximum tolerable concentration: 1 mM
